AlphaSeq binding of Ab-14 light chain variants to a spike HR2 peptide

Reference: Li et al. 2023, doi:10.1038/s41467-023-39022-2. File: FLAb, binding data.

The target is the same throughout: PDVDLGDISGINAS, from the HR2 region of SARS-CoV-2 spike.

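The starting antibody came from a phage panning campaign against this peptide. This is the validation round: designs drawn from the data on random variants, tested in the same kind of assay. Their group label is 14L_Ctrl (Ctrl: baseline library sampled from a position-specific scoring matrix, with some repeated check sequences). In AlphaSeq, yeast of one mating type display the scFv and yeast of the other type display the target. Binding brings cells together so that they mate, and sequencing counts the barcode pairs among the diploids. A regression on co-assayed BCL2-family reference pairs converts the normalised counts of each replicate to an apparent Kd. Mating was done six times.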

Parent scFv Ab-14: VH joined to VL by a (GGGGS)3 linker. Changes lie in the light chain CDRs alone.
VH: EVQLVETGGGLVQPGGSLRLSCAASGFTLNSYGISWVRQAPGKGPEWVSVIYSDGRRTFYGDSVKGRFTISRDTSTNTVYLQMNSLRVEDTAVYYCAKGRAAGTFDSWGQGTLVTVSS
VL: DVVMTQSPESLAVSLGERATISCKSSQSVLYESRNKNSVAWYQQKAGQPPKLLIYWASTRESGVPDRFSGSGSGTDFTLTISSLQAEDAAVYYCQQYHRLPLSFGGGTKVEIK

Each variant is given by its three light chain CDRs, as the data file delimits them; those of the parent are KSSQSVLYESRNKNSVA, WASTRES, QQYHRLPLS.
The read-out is the apparent dissociation constant on a log10 scale (nM): the lower, the stronger.
The mean shown is taken over the replicates in which the pair was detected.
A pair that was not seen in that replicate is written "ND"; this usually means weak binding, but a binder can also be missed.
The authors' rule: three or more of the six replicates give a measured affinity, fewer mean a poor binder.
Values of this round are not directly comparable with the first-round values of the same sequences.
Empty control strains, which show no peptide, gave a signal in 4% of pairings with all light chain designs; the median was 2.64 and 95% of these signals were weaker than 1.59. No background was subtracted. For each scFv, signals with the empty controls are counted beside the result, with their mean in brackets.

CDR-L1	CDR-L2	CDR-L3	log10 Kd, replicates	log10 Kd (nM), mean	signal with controls
DSSQSVLYESRNKNSVA	HASTRES	QQYHRLPLS	0.85 0.57 1.12 0.64 0.59 0.77	0.76	2 of 18 (2.72)
KDSQSVLYESRNINSVA	ELSIRES	QQYHRLPLS	1.99 2.31 ND 2.68 3.30 2.52	2.56	3 of 18 (1.93)
KSSQSVLYESRNKNAVA	WASTQES	QQYHRLPLS	ND ND ND ND ND ND	ND	1 of 18 (1.94)
KSSQSVLYESHNKNSVA	AASTRES	QQYHRLPIS	ND 1.35 2.63 1.50 ND 2.05	1.88	0 of 18
KSSQSELYESRNKNSVA	WASTRES	QQYHRLPLS	1.42 2.14 ND ND 2.00 1.82	1.84	0 of 18
KVSQSVPYESRNKNSVA	WVSTRES	QQYHRLPLS	ND ND ND ND ND ND	ND	0 of 18
KSSKSVLYEDRNLNHVA	WASMRES	QQYHRLALS	ND ND ND ND ND ND	ND	0 of 18
KSSQSPLYESRNKNSVA	SASTRES	QQYHRLPLS	-0.42 -0.21 -1.35 -1.35 -1.32 -0.07	-0.79	0 of 18
KSSQSVLYESRNKNSVA	WASTRVS	QIHHRLPLS	ND 2.31 ND ND ND ND	2.31	1 of 18 (1.31)
KSSQQVLLESRNKNPVA	AASTRES	QQYHRLPLS	2.08 1.31 1.41 ND 2.53 1.63	1.79	0 of 18
KSRQAVMYESKNKNSVA	WASTRES	QQYHRLPLF	ND ND ND ND ND ND	ND	0 of 18
KSSQSVGYESRNPNSVA	WASTREV	QQYHRLPLS	1.08 1.11 1.61 0.79 0.52 1.95	1.18	1 of 18 (1.67)
KIRQSVLYESRNKNSVA	WASTRES	QQYHVLPLS	1.64 1.55 1.34 1.16 1.37 1.71	1.46	2 of 18 (3.21)
KSSQSVLYNSRNKNSVA	QASERES	QQYHRLPLD	2.45 1.95 1.58 2.42 3.18 ND	2.32	0 of 18
KSSQSVLYESRNANSVA	WASTREQ	QQCARLPLS	ND ND ND ND ND ND	ND	0 of 18
KSSQSVLYEFRNHNSVA	WASTRES	QQYERLPLS	ND ND ND ND ND 1.88	1.88	0 of 18
KSSQSVLYESRNKNGVA	WVSTRES	QQYHRLPLS	ND ND ND ND ND ND	ND	0 of 18
KSSQSVLYESRVSNSVA	WASTREV	QQYHRLPLS	ND ND ND ND ND 2.07	2.07	0 of 18
KSSQSVLYEWRNKNSVA	SASTRES	QQYHRLHLS	ND ND ND ND ND ND	ND	0 of 18
KCSQSVLMESRNKNSVA	WASTRES	QQYHRLPCS	ND ND ND ND ND ND	ND	0 of 18
KNSQSVLYESRNKNSVA	NASTRES	QQYHRLPLS	-0.42 -0.43 -0.72 -0.53 -0.58 -0.39	-0.51	1 of 18 (2.62)
KSSQSVLYEERRKNSVA	WASTREP	QQYHRLPLS	3.14 1.52 ND ND 2.54 2.54	2.44	1 of 18 (2.21)
KSSASVLYESRNKNAVA	DASTRES	QQYHRLPLS	0.63 0.33 0.62 0.52 0.50 0.53	0.52	0 of 18
KFSQSYLYESRNKNAVA	QASTRES	QQYHRLPLS	-0.50 -0.23 -0.44 -0.52 -0.59 -0.17	-0.41	1 of 18 (2.70)
KSSQSVLYESRNLNSVA	WASTREP	QQYHRLPTS	1.46 1.44 1.45 1.48 1.02 1.74	1.43	0 of 18
KSSQSVLYESRNKNSVA	NASTRES	QQYYRLPLS	0.80 1.00 0.70 0.81 0.56 1.01	0.81	3 of 18 (3.01)
KSSQSVLYERRNKNSVA	NASTRES	QQYHRLPLS	2.58 2.59 2.06 2.00 2.09 1.55	2.14	1 of 18 (3.23)
KSSQSVLYESRNKNSVA	WTSTRES	QQYHRLPLS	ND ND ND 2.05 ND 2.01	2.03	0 of 18
KLVQGVLKESRNKNCVA	WASTRES	QQYHRLPLS	ND ND ND ND ND ND	ND	0 of 18
KISQSVLYESDLKNSVA	WASTRES	QQYHRLPLS	0.88 0.78 0.65 0.83 0.69 0.73	0.76	4 of 18 (3.33)
KSAQGVLYESRNKNSVA	WVSTREP	TYYHRLPTS	ND ND ND ND ND ND	ND	0 of 18
KSSSEVLYESRNKNSVA	HASTRES	QQYHRLPLS	0.47 0.31 0.31 0.10 0.15 0.38	0.29	1 of 18 (3.76)
KSSQSCWYEWRNKNSIA	WASTRFS	QQYFRLPLS	0.92 0.87 1.73 1.22 ND 2.82	1.51	0 of 18
KSSQSVLYDSRNKNSVA	WASTRES	QQYNRLPLS	3.36 1.42 1.39 1.54 4.04 1.91	2.28	0 of 18
KSSQSVLYESRNKNSVA	WASTRES	QQYTRHPLW	1.51 2.47 ND 2.45 ND 2.20	2.16	1 of 18 (2.30)
KSQQSVLYDSRNKNSVA	MASTRES	QQYHRLPLS	1.01 0.77 0.74 0.75 1.58 1.12	1.00	1 of 18 (3.30)
KSSQSSTYESRNKNSVA	WSSTRES	QQYMRLPLS	ND 1.80 3.55 2.14 1.04 ND	2.13	0 of 18
KSSQSVDYESRNKNSVA	NATTRES	QQYHRPPLS	0.63 1.21 0.83 0.76 0.79 2.20	1.07	1 of 18 (2.81)
KSSQSVPYESQNKNSVA	WADTRSK	QDYHRLPLS	ND ND ND ND ND ND	ND	0 of 18
KVCQSVLYESRMKNSVA	QASTRES	QQYHRLPLS	0.07 0.13 0.32 0.20 0.25 0.54	0.25	0 of 18
KSSQSVLYEDRNKNSVA	WASTRES	QQYHRLPLS	ND 1.81 1.95 2.03 1.98 2.41	2.04	0 of 18
KVSQSHLYESRNKNSVA	WASERES	QQYHRLPLG	ND 1.04 ND ND ND 1.29	1.16	0 of 18
KSSQSVLYEGSNKNSIA	DASTRES	QQYHRLPLS	0.68 0.52 0.16 0.08 0.27 0.48	0.36	2 of 18 (2.72)
HSSQSVLYESRNFNSVA	WASTRES	QQYHRLPLS	ND 3.44 ND 1.84 2.11 2.76	2.54	0 of 18

6 of these entries, quoted again:

CDR-L1	CDR-L2	CDR-L3	log10 Kd, replicates	log10 Kd (nM), mean	signal with controls
KSSQSVLYEGSNKNSIA	DASTRES	QQYHRLPLS	0.68 0.52 0.16 0.08 0.27 0.48	0.36	2 of 18 (2.72)
KSSQSVLYEDRNKNSVA	WASTRES	QQYHRLPLS	ND 1.81 1.95 2.03 1.98 2.41	2.04	0 of 18
KSSQSVLYEERRKNSVA	WASTREP	QQYHRLPLS	3.14 1.52 ND ND 2.54 2.54	2.44	1 of 18 (2.21)
KSSQSVLYESRNANSVA	WASTREQ	QQCARLPLS	ND ND ND ND ND ND	ND	0 of 18
KSSQSVLYESRNKNSVA	WASTRVS	QIHHRLPLS	ND 2.31 ND ND ND ND	2.31	1 of 18 (1.31)
KSSQSVLYERRNKNSVA	NASTRES	QQYHRLPLS	2.58 2.59 2.06 2.00 2.09 1.55	2.14	1 of 18 (3.23)